## Yeast mating assay 1: variants of the scFv Ab-14

Binding partner: SARS-CoV-2 spike HR2 peptide, sequence PDVDLGDISGINAS.

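The starting antibody came from a phage panning campaign against this peptide. Variants in AAYL49 differ from the parent at up to three CDR positions; double and triple changes were sampled at random. Affinity was read by AlphaSeq, a pooled yeast mating assay with surface-displayed partners. The frequency of each diploid, read from paired DNA barcodes, reflects how well the two displayed proteins bind. A regression on co-assayed BCL2-family reference pairs converts the normalised counts of each replicate to an apparent Kd. There are three technical replicates.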

Ab-14 is the parent antibody, in scFv form: VH, then a (GGGGS)3 linker, then VL. The light chain is unchanged in all variants.
VH: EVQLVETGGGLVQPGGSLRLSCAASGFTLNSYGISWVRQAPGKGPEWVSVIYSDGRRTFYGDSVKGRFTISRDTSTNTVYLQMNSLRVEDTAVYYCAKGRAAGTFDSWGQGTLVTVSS
VL: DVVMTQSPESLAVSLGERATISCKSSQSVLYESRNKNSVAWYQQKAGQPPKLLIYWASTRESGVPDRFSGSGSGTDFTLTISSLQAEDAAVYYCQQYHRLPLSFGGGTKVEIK

Changes read parent residue, position, new residue, counted from the first residue of the VH shown.
This list gathers variants with a substitution at G55 (VH, numbered from residue 1).
Values are log10 of the apparent Kd in nM; lower means stronger binding.
A mean of the replicates is given; it leaves out those without a signal.
An entry "not detected" has no value in the source: the pair was not observed among the diploids in any replicate. This suggests poor binding but is not conclusive.
As a blank, each scFv also met three strains without target: over library AAYL49, 15% of these pairings were detected, typically at 4.06 and seldom below 2.83. Also given: how often the same scFv was detected with the empty control strains.

| changes | mean, log10 nM | replicates with signal | signal with controls |
|---|---|---|---|
| T28K/G55Y/K65H | not detected | 0 of 3 | 0 of 9 |
| G26S/G55F/T58C | not detected | 0 of 3 | 1 of 9 |
| G33D/G55N/A102L | 4.56 | 2 of 3 | 3 of 9 |
| G55I/G103F/D106H | 5.30 | 2 of 3 | 5 of 9 |
| G55A/V64A/F105T | 4.84 | 1 of 3 | 2 of 9 |
| G55M/D62G/T104A | 3.69 | 1 of 3 | 2 of 9 |
| G55M/Y60K | not detected | 0 of 3 | 0 of 9 |
| G33A/G55S/G99K | not detected | 0 of 3 | 1 of 9 |
| G26F/Y52D/G55V | 4.37 | 2 of 3 | 3 of 9 |
| G55T/F59S/K65P | 5.15 | 2 of 3 | 4 of 9 |
| F27P/G55C/G103M | not detected | 0 of 3 | 2 of 9 |
| G55S/V64D/A102M | 4.43 | 1 of 3 | 0 of 9 |
| G55N/F59P/S107I | not detected | 0 of 3 | 0 of 9 |
| G55T/T58G/K65L | 4.29 | 1 of 3 | 0 of 9 |
| Y32C/S35C/G55L | not detected | 0 of 3 | 4 of 9 |
| G55I/K65D/R100Q | 4.68 | 3 of 3 | 6 of 9 |
| N30H/G55I | not detected | 0 of 3 | 0 of 9 |
| G55Y/G99I/A102H | not detected | 0 of 3 | 1 of 9 |
| V50T/G55S/S63H | 3.29 | 1 of 3 | 0 of 9 |
| S31Q/Y52Q/G55K | not detected | 0 of 3 | 4 of 9 |
| N30M/G55Y | not detected | 0 of 3 | 1 of 9 |
| N30F/G55V/S107L | not detected | 0 of 3 | 0 of 9 |
| S35L/G55R/F105Q | not detected | 0 of 3 | 0 of 9 |
| G55H/R57V/F105H | 5.24 | 1 of 3 | 2 of 9 |
| G55L/R56S/R100S | 4.94 | 1 of 3 | 2 of 9 |
| V50T/G55Y/G61N | not detected | 0 of 3 | 1 of 9 |
| T28W/G55L | not detected | 0 of 3 | 0 of 9 |
| G55E/T58I/G61P | not detected | 0 of 3 | 1 of 9 |
| G33I/G55F/T58K | 5.12 | 3 of 3 | 4 of 9 |
| L29K/G55S/A101W | not detected | 0 of 3 | 0 of 9 |
| G55Q/R56P/S63F | not detected | 0 of 3 | 0 of 9 |
| N30W/G55V/D62M | not detected | 0 of 3 | 0 of 9 |
| T28Y/S53W/G55N | not detected | 0 of 3 | 1 of 9 |
| Y32I/I34F/G55P | not detected | 0 of 3 | 1 of 9 |
| G33E/G55P/A101W | not detected | 0 of 3 | 0 of 9 |
| I34N/G55V/T104V | 4.15 | 3 of 3 | 4 of 9 |
| G33A/G55T/D62Y | not detected | 0 of 3 | 0 of 9 |
| G26P/G55E/A101H | 4.31 | 3 of 3 | 4 of 9 |
| G55V/R56L/T58Y | not detected | 0 of 3 | 2 of 9 |
| G55K/D106C | not detected | 0 of 3 | 0 of 9 |
| V50Q/G55Y/R100I | not detected | 0 of 3 | 1 of 9 |
| L29K/G55P/F105T | 5.32 | 3 of 3 | 5 of 9 |
| G33V/V50Y/G55A | not detected | 0 of 3 | 0 of 9 |
| I34W/G55W/D62N | not detected | 0 of 3 | 1 of 9 |
| S35Y/V50L/G55W | not detected | 0 of 3 | 0 of 9 |
| F27S/G55D/F59I | not detected | 0 of 3 | 0 of 9 |
| Y32F/G55K/G99F | 4.60 | 2 of 3 | 8 of 9 |
| Y32R/G55R/V64T | 4.33 | 2 of 3 | 2 of 9 |
| S35Y/G55Q | not detected | 0 of 3 | 1 of 9 |
| G55L | 4.88 | 3 of 3 | 5 of 9 |
| G55R/T58Y/D106G | 5.70 | 1 of 3 | 4 of 9 |
| G55Y/T58M/D62W | not detected | 0 of 3 | 0 of 9 |
| G26N/G55K/F105M | not detected | 0 of 3 | 5 of 9 |
| G55T/R100H/S107M | 3.75 | 1 of 3 | 1 of 9 |
| T28P/G55P/F59D | 3.90 | 2 of 3 | 1 of 9 |
| F27A/Y52T/G55F | 4.37 | 2 of 3 | 0 of 9 |
| I34A/G55V/T104H | not detected | 0 of 3 | 0 of 9 |
| G55M/K65N/A102Q | 3.48 | 2 of 3 | 6 of 9 |
| S35W/G55D/R56S | 6.18 | 2 of 3 | 5 of 9 |
| Y32S/G55C/F105N | 3.69 | 1 of 3 | 3 of 9 |
| G55R/T58R/G103I | 3.61 | 1 of 3 | 1 of 9 |
| F27D/G55D/K65M | 5.27 | 1 of 3 | 2 of 9 |
| I34S/G55H | 4.28 | 1 of 3 | 1 of 9 |
| G33Y/S53Y/G55V | 4.10 | 1 of 3 | 1 of 9 |
| F27G/G55T | not detected | 0 of 3 | 0 of 9 |
| F27L/G55T/T58H | 4.66 | 2 of 3 | 2 of 9 |
| I51S/Y52S/G55L | not detected | 0 of 3 | 0 of 9 |
| T28K/G55D/A101R | not detected | 0 of 3 | 0 of 9 |
| S31F/G55P/R57G | not detected | 0 of 3 | 1 of 9 |
| F27H/G55R | 4.67 | 2 of 3 | 3 of 9 |
| G55L/Y60C/G61H | 3.36 | 1 of 3 | 2 of 9 |
| N30H/G55C/R100L | not detected | 0 of 3 | 0 of 9 |

Excerpt, the final 6 entries:

| changes | mean, log10 nM | replicates with signal | signal with controls |
|---|---|---|---|
| I51S/Y52S/G55L | not detected | 0 of 3 | 0 of 9 |
| T28K/G55D/A101R | not detected | 0 of 3 | 0 of 9 |
| S31F/G55P/R57G | not detected | 0 of 3 | 1 of 9 |
| F27H/G55R | 4.67 | 2 of 3 | 3 of 9 |
| G55L/Y60C/G61H | 3.36 | 1 of 3 | 2 of 9 |
| N30H/G55C/R100L | not detected | 0 of 3 | 0 of 9 |

From the AlphaSeq antibody data of Engelhart et al. 2022 (doi:10.1038/s41597-022-01779-4), copy in the FLAb collection.